# Experimental data from PubChem BioAssay AID684 (PCMD, 2007).
# The chains behind the UniProt entries cited, without tags or fusion partners. Residues count along the entry.
# UniProt P00748, 20-372 limits assumed: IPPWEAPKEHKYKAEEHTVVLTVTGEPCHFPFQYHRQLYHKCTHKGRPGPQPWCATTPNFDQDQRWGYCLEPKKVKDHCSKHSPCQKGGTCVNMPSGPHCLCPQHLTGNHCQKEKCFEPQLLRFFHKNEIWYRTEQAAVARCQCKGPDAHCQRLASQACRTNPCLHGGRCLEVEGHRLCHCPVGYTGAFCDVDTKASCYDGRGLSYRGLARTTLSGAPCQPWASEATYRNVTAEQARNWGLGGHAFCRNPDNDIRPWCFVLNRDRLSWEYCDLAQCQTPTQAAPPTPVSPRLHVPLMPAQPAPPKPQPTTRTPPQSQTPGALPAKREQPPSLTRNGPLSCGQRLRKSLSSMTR
# UniProt P00748, 373-615 limits assumed: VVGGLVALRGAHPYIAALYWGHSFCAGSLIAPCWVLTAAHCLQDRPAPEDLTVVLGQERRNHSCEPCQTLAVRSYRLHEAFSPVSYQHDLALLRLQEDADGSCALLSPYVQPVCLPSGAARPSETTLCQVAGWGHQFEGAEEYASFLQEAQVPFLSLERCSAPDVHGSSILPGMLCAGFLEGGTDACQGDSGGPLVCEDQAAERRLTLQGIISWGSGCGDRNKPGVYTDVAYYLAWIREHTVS
# This is a selection; strong and weak results do not stand in their true shares. The source made the active and inactive calls. Cut-off read from the data, not from the text of the source: active = inhibition above about 20% (passing the limit was not always enough); inactive = the rest.
# Molecular target: Coagulation factor XII (Homo sapiens) (UniProt P00748)
# Experiment: human factor XIIa inhibitors, primary screen, biochemical, pooled compound mixtures, fluorogenic substrate (AID 684);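 note: 0% = enzyme without compound and 100% = no enzyme blank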
# Conditions: purified FXIIa, at 5 µM, stronger effect = higher value
row,Structure (SMILES),inhibition
1,Fc1ccccc1NC1CCN(Cc2ccccc2)CC1,inactive: 0.43%
2,CCC(CO)(C(=O)OC1CN2CCC1CC2)c1ccccc1 (stereo unspecified),inactive: 23.9%
3,CCOc1ncccc1C(=O)NCC1(N2CCOCC2)CCCCC1,inactive: 8.2%
4,N/C(=N\O)c1c(N)no[n+]1[O-],inactive: 3.82%
5,N#CC1(Nc2ccccc2)CCN(CCc2ccccc2)CC1,inactive: 5.58%
6,O=C(OC1CN2CCC1CC2)C1c2ccccc2Oc2ccccc21 (stereo unspecified),inactive: 3.21%
